In BindingDB's records for doi:10.1016/j.bmcl.2010.08.118 (Roche Palo Alto, 2010) one finds IC50 data, which are given here for 1 compound.

What is called IC50 is the concentration that gives 50% inhibition. Low readings indicate higher potency, high ones lower potency.

The structures appear in SMILES notation.

This test can be described thus: Inhibition of CCR5 by cell-cell fusion inhibition assay.

The compound `Cc1cc(C#N)nc(C)c1C(=O)N1C[C@H]2CN(CCC(c3ccccc3)C3CCN(S(C)(=O)=O)CC3)C[C@H]2C1` (stereo partly drawn) [4,6-dimethyl-5-((3aR,6aS)-5-(3-(1-(methylsulfonyl)piperidin-4-yl)-3-phenylpropyl)octahydropyrrolo[3,4-c]pyrrole-2-carbonyl)picolinonitrile] returned an IC50 of 1.2 nM.
